{"source": "paper PMC12005989", "about": "“Purification, identification, and in silico screening of a multifunctional octapeptide from semen armeniacae glutelin-2 hydrolysates: restraining mechanisms to Keap1 and ACE, stability, and ferrous-transport efficiency” (Frontiers in Nutrition, 2025)", "experiment": "Ferrous solubility of ferrous chelate during simulated gastrointestinal digestion", "type": "in vitro ADME", "method": "Next, the intestinal digestive fluid was added, and the digestion was continued at pH 6.8 for 2 h in the EDZF-C002 thermostatic vibrator ([…], 175 rpm)."}
{"substance": "PVDFAGFY-ferrous chelate: ferrous chelate of PVDFAGFY prepared with ferrous chloride (ferrous chelate)", "values": [{"measurement": "Ferrous solubility during gastric digestion (0–90 min)", "setting": "simulated gastric fluid with pepsin, pH 1.9, 37°C, 175 rpm, soluble ferrous by o-phenanthroline every 30 min", "value": "relatively stable"}, {"measurement": "Ferrous solubility compared with ferrous lactate and ferrous chloride, 91 to 180 min", "setting": "simulated intestinal digestion, pH 6.8, comparators 0.1 mg/mL, p < 0.05", "value": "much higher than those of ferrous lactate and ferrous chloride"}, {"measurement": "Ferrous solubility during intestinal digestion (91–180 min)", "setting": "simulated intestinal fluid, pH 6.8, 37°C, soluble ferrous by o-phenanthroline every 30 min", "value": "apparently decreased"}]}
